## scFv variants of Ab-14 (light chain) against a SARS-CoV-2 spike peptide

Data: MIT Lincoln Laboratory AlphaSeq set, Engelhart et al. 2022, doi:10.1038/s41597-022-01779-4, as distributed in FLAb.

Target: peptide PDVDLGDISGINAS, taken from heptad repeat 2 (HR2) of SARS-CoV-2 spike.

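Variants in AAYL50 differ from the parent at up to three CDR positions; double and triple changes were sampled at random. The assay is AlphaSeq: two haploid yeast populations carry antibody and antigen on their surface. Binding brings cells together so that they mate, and sequencing counts the barcode pairs among the diploids. The ratio of observed to expected reads was calibrated, replicate by replicate, on BCL2-family standards whose Kd was known from biolayer interferometry. There are three technical replicates.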

Parent: Ab-14, a human scFv built as VH, a (GGGGS)3 linker, VL. Only the CDRs of the light chain vary.
VH: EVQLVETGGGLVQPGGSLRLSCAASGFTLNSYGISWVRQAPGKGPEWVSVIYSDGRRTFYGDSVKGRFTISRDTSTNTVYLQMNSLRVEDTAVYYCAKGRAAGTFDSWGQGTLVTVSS
VL: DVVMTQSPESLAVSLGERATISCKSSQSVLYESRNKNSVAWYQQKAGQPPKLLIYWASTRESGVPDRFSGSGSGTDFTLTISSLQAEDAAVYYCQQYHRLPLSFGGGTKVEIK

Variants are written as CDR1, CDR2 and CDR3 of the light chain (limits as in the source). Parent: KSSQSVLYESRNKNSVA, WASTRES, QQYHRLPLS.
Values are log10 of the apparent Kd in nM; lower means stronger binding.
Where no diploid with the target was found in that replicate, the entry reads "ND": below detection, most likely a poor binder, though not proof of it.
Three control strains display no target. For library AAYL50, 18% of the pairings with them gave a signal, with a median of 4.19 and one signal in twenty below 2.99, so weak values seen in few replicates may be background. The control count says in how many pairings with the empty strains this scFv gave a signal, with their mean in brackets.
Parent in this assay: reference entry 0.65, copy in this library 1.68.

CDR-L1	CDR-L2	CDR-L3	log10 Kd, replicates	control signals
KSSQSVLYESENKNSVA	WASTFES	QQYHSLPLS	ND / 3.06 / ND	1 of 9 (3.02)
KSSQSVLYTSRNLNSVA	WASTRES	QQYHQLPLS	1.24 / 1.24 / 1.39	1 of 9 (5.62)
KSSQSDLYESRNKPSVA	WASTRES	QQYHRLPLS	1.64 / 1.49 / 2.06	0 of 9
KSSQSVLYESRNKNSVA	WASTRES	IQYHRLPAS	ND / ND / ND	3 of 9 (4.03)
KSSQSVLLESRNNNSVA	WASTRES	QQYHGLPLS	ND / ND / ND	0 of 9
KSSQSVLYESRNKNSVA	WWSTRGS	YQYHRLPLS	ND / 3.29 / ND	0 of 9
DDSQSVLYESRNKNSVA	LASTRES	QQYHRLPLS	2.25 / 2.50 / 2.63	3 of 9 (3.66)
KSSQSVLYESRNKNSVA	WAQTRES	QQIHDLPLS	0.95 / 1.04 / 1.07	4 of 9 (4.79)
KSSQSVLYESRNANSVA	WASTREA	QQYHRLPLS	0.66 / 0.93 / 0.68	0 of 9
KSSQNVLYESRNKNSVA	WASTREK	VQYHRLPLS	ND / ND / ND	1 of 9 (4.11)
KSSQSVLYESRNKNSVA	WASTRES	QQYNHIPLS	1.39 / 1.38 / 1.47	0 of 9
KSSQSVLYESRNKNYVA	WASTNES	QQYHRLPLS	ND / ND / ND	0 of 9
KSSQSVLYESRKKQSVA	WASTRES	QQYHRLPIS	3.89 / 3.02 / 3.73	1 of 9 (3.59)
KSSDSVLYESRNKNSVA	WASTRWS	QQYHRLPYS	2.47 / 2.28 / 2.96	5 of 9 (4.35)
KSSQSVLYESDQKNSVA	WASTRES	QQYHRWPLS	ND / ND / ND	0 of 9
KSSQSVLYASRNKNSVA	WASTRES	QQYHSLPTS	ND / ND / ND	0 of 9
KSSQSVLYEHRNKNSVA	WARTRES	PQYHRLPLS	4.07 / 5.44 / 5.95	2 of 9 (4.43)
KSSQSVLYESRNKNSVA	WANTRES	QQYHRPVLS	1.32 / 1.75 / 1.68	1 of 9 (3.49)
KSSQSVLYESRMKQSVA	WASTRES	QQYHRLPLS	1.24 / 1.52 / 1.39	3 of 9 (4.59)
KSSQSVMYESRNKNSVA	WASTRES	QVYHRLGLS	ND / 3.83 / 4.66	4 of 9 (3.38)
KSSQSVLYMSRNKNKVA	WASTRCS	QQYHRLPLS	ND / 4.93 / ND	5 of 9 (4.06)
KSSQSVLYESRNFNSVA	WASTRES	QQPHSLPLS	ND / ND / ND	0 of 9
KSSQSVLYESRNKNSWA	WASTRES	QMDHRLPLS	ND / ND / ND	0 of 9
KSSQSVLYESDNKNSVA	AASTRES	QQYHRFPLS	0.55 / 0.60 / 0.66	1 of 9 (2.88)
KSSQSVLYESRNGNSVM	WASTRES	QNYHRLPLS	5.23 / ND / ND	0 of 9
KSSQSVLYESRNKNSVA	WASTRES	QQWHRLPLS	5.14 / ND / ND	3 of 9 (4.49)
KSFQSVLYESANKNSVA	WASTRES	QQDHRLPLS	ND / ND / ND	2 of 9 (2.78)
KSSKSELYESRNKNSVA	WLSTRES	QQYHRLPLS	2.56 / 2.56 / 2.63	2 of 9 (4.35)
KSRQSKLYESRNDNSVA	WASTRES	QQYHRLPLS	0.93 / 1.23 / 0.76	0 of 9
KSSQSVLYESVNKKSVA	WAPTRES	QQYHRLPLS	6.40 / ND / 4.79	6 of 9 (4.71)
KSSQYVLYESRNKNSVA	WASDRES	LQYHRLPLS	4.70 / 4.63 / 4.65	6 of 9 (4.67)
KSSQSVLFESRNKNSVA	WASTRES	QQLHRKPLS	ND / ND / ND	0 of 9
KSSQAVLYESRNKNSVA	WASTVES	QQYHRLPLS	ND / ND / ND	0 of 9
KQSQSVLYESRNKNVVA	WTSTRES	QQYHRLPLS	ND / ND / ND	0 of 9
KSSQSVLYESRNKRSVA	WASTREC	QQYHRLPKS	3.16 / 2.10 / 2.38	0 of 9
KSSQSVLYESRNKNSVA	WASHRES	QQRHQLPLS	4.59 / 5.27 / 6.13	4 of 9 (4.40)
KSSQSVLYESRNKNSVA	HASTRES	QQYHRLYPS	1.24 / 1.14 / 1.40	1 of 9 (3.62)
KSSQSDLYESRNKNSVW	WYSTRES	QQYHRLPLS	ND / 5.40 / ND	4 of 9 (4.38)
KSSQSVLYEWRNKNSVA	WASTKES	QQYHRLPLM	2.13 / 2.23 / 2.07	0 of 9
KSSQSLPYESNNKNSVA	WASTRES	QQYHRLPLS	0.29 / 0.66 / 0.53	1 of 9 (3.83)
KSSQSVLYESRNKNSVA	WASTRCS	KQYHRPPLS	4.99 / ND / ND	2 of 9 (4.96)
KSSQSYLYESRNKNSVA	WASTRES	QYVHRLPLS	ND / ND / ND	0 of 9
KSEQSVLYESRNKNSVA	WAVTRES	QQYHRLPLS	ND / ND / ND	0 of 9
WSSQSVLYESRNKNSVQ	WASTRES	QQYHRLKLS	ND / ND / ND	0 of 9
KSSQSVLYNSRNANSVA	QASTRES	QQYHRLPLS	-0.43 / -0.03 / -0.31	8 of 9 (4.85)
KSSQSVLKEHRNKNSNA	WASTRES	QQYHRLPLS	ND / 3.70 / ND	3 of 9 (4.70)
KSSQSVLYESREKNSHA	WASTRES	QQYHRLKLS	ND / ND / 4.35	4 of 9 (4.31)
KSSQSVLYESRNKNVVA	WASTRES	QQYHKLPLS	ND / 4.71 / ND	0 of 9

The 7 strongest on average among those seen in every replicate, once more:

| CDR-L1 | CDR-L2 | CDR-L3 | log10 Kd, replicates | control signals |
|---|---|---|---|---|
| KSSQSVLYNSRNANSVA | QASTRES | QQYHRLPLS | -0.43 / -0.03 / -0.31 | 8 of 9 (4.85) |
| KSSQSLPYESNNKNSVA | WASTRES | QQYHRLPLS | 0.29 / 0.66 / 0.53 | 1 of 9 (3.83) |
| KSSQSVLYESDNKNSVA | AASTRES | QQYHRFPLS | 0.55 / 0.60 / 0.66 | 1 of 9 (2.88) |
| KSSQSVLYESRNANSVA | WASTREA | QQYHRLPLS | 0.66 / 0.93 / 0.68 | 0 of 9 |
| KSRQSKLYESRNDNSVA | WASTRES | QQYHRLPLS | 0.93 / 1.23 / 0.76 | 0 of 9 |
| KSSQSVLYESRNKNSVA | WAQTRES | QQIHDLPLS | 0.95 / 1.04 / 1.07 | 4 of 9 (4.79) |
| KSSQSVLYESRNKNSVA | HASTRES | QQYHRLYPS | 1.24 / 1.14 / 1.40 | 1 of 9 (3.62) |